Results published in patent US9061077B2, “Methods of determining renal function using technetium-99m tricarbonyl-nitrilotriacetic acid” (Emory University, priority 2008, dated 2015).

What was measured:
[1] = rat, in vivo
[2] = Plasma clearance in healthy volunteers (single injection, two-compartment model); conditions: normal volunteers, individual values and mean; listed as 99mTc-NTA
[3] = rat urine 10 min, plasma 2-3 min post-injection
[4] = rat, in vivo; remark: listed apart in the source
[5] = Biodistribution in rats with renal pedicle ligation (renal failure model), Group B; conditions: 60 min; for Percent injected dose in bowel: small and large intestines; for Percent injected dose in blood: renal pedicle ligation Group B, n=6

Extraction fraction [1]: 93.5%
Mean total injected activity present in heart, lungs, spleen, blood and liver [4]: < 0.8%
Percent injected dose in kidney ([5]; Group B): 0.9 ± 0.2%
Percent injected dose in bowel ([5]; Group B, listed as 99mTc-NTA): 5.6 ± 0.9%
Percent injected dose in bowel ([5]; Group B, listed as Na2[^99mTc(CO)3(NTA)]): 5.6%
Percent injected dose in blood ([5]; listed as 99mTc-NTA): 19.9 ± 1.2%
Percent injected dose in blood ([5]; listed as Na2[^99mTc(CO)3(NTA)]): 19.9%
Substance: technetium-99m tricarbonyl-nitrilotriacetic acid [^99mTc(CO)3(NTA)]
Clear NTA/OIH [2]: 113% and 140% and 102% and 78% and 98% and 80%
In vivo stability (metabolites by HPLC) [3]: only one peak in urine (FIG. 2B) and plasma (FIG. 2C)

Values joined by “and” are separate entries in the source; they are usually repeats but may differ in a detail not shown here. Identical values can stand only once.
